In US20250235566A1, “[…]-[…] LABELING PRECURSORS AND RA[…] THEREFROM” (Medianezia GmbH, priority 2021, published 2025):

Assay: Determination of log D (1-octanol/PBS) of the labeled compounds
Format: physicochemical
Experimental: To this was added each time 700 μL of 1-octanol, and the mixture was shaken vigorously for 2 min and then centrifuged for 1 min. The organic and aqueous phases were separated and 400 μL of each was isolated. Samples of 3 μL (PBS) and 6 μL (1-octanol) were dabbed onto a TLC plate. Most of the activity was in the aqueous phase. This was subsequently diluted to 700 μL and extracted twice more with 1-octanol and dabbed on again. The TLC was exposed for about 5 min, and the integral of each spot (octanol phase: lo, aqueous PBS phase: lw) was determined. The calculation of the log D value by equation (1) took account of the different volumes Vo=6 μL and Vw=3 μL:
For the evaluation, the values from the 2nd and 3rd extractions of the 4 batches were averaged.

Row | SMILES | log D value (^68Ga-labeled compound) | log D value (^177Lu-labeled compound)
1 | CN(CC(=O)O)C1(CCCCC(=O)N[C@@H](CCC(=O)NCCCCOc2ccc3nccc(C(=O)NCC(=O)N4CC(F)(F)C[C@H]4C#N)c3c2)C(=O)NCCCCOc2ccc3nccc(C(=O)NCC(=O)N4CC(F)(F)C[C@H]4C#N)c3c2)CN(CC(=O)O)CCN(CC(=O)O)C1 [DATA^5m.Glu.(FAPi)2, 2,2′-(6-(5-(((S)-1,5-bis((4-((4-((2-((S)-2-cyano-4,4-difluoropyrrolidin-1-yl)-2-oxoethyl)carbamoyl)quinolin-6-yl)oxy)butyl)amino)-1,5-dioxopentan-2-yl)amino)-5-oxopentyl)-6-((carboxymethyl)(methyl)amino)-1,4-diazepane-1,4-diyl)diacetic acid] | −2.03 ± 0.05 | –
2 | N#C[C@@H]1CC(F)(F)CN1C(=O)CNC(=O)c1ccnc2ccc(OCCCCNC(=O)CC[C@H](NC(=O)CN3CCN(CC(=O)O)CCN(CC(=O)O)CCN(CC(=O)O)CC3)C(=O)NCCCCOc3ccc4nccc(C(=O)NCC(=O)N5CC(F)(F)C[C@H]5C#N)c4c3)cc12 [DOTA.Glu.(FAPi)2, 2,2′,2″-(10-(2-(((S)-1,5-bis((4-((4-((2-((S)-2-cyano-4,4-difluoropyrrolidin-1-yl)-2-oxoethyl)carbamoyl)quinolin-6-yl)oxy)butyl)amino)-1,5-dioxopentan-2-yl)amino)-2-oxoethyl)-1,4,7,10-tetraazacyclododecan-1,4,7-triyl)triacetic acid] | −2.08 ± 0.07 | −1.77 ± 0.10
3 | N#C[C@@H]1CC(F)(F)CN1C(=O)CNC(=O)c1ccnc2ccc(OCCCCNC(=O)CC[C@H](NC(=O)CCC(C(=O)O)N3CCN(CC(=O)O)CCN(CC(=O)O)CCN(CC(=O)O)CC3)C(=O)NCCCCOc3ccc4nccc(C(=O)NCC(=O)N5CC(F)(F)C[C@H]5C#N)c4c3)cc12 (stereo partly drawn) [DOTAGA.Glu.(FAPi)2, 2,2′,2″-(10-(4-(((S)-1,5-bis((4-((4-((2-((S)-2-cyano-4,4-difluoropyrrolidin-1-yl)-2-oxoethyl)carbamoyl)quinolin-6-yl)oxy)butyl)amino)-1,5-dioxopentan-2-yl)amino)-1-carboxy-4-oxobutyl)-1,4,7,10-tetraazacyclododecan-1,4,7-triyl)triacetic acid] | −2.48 ± 0.05 | −2.77 ± 0.10
